For 3 compounds, PPB and IC50 results are on record in ChEMBL document CHEMBL4033752, “Discovery of Potent and Selective Tricyclic Inhibitors of Bruton's Tyrosine Kinase with Improved Druglike Properties” (ACS Med Chem Lett, 2017).

Sequences of proteins named here, by UniProt entry; tags and fusion partners are left off. A change or cut given only in a name is not applied to a line headed by its entry.
UniProt Q06187: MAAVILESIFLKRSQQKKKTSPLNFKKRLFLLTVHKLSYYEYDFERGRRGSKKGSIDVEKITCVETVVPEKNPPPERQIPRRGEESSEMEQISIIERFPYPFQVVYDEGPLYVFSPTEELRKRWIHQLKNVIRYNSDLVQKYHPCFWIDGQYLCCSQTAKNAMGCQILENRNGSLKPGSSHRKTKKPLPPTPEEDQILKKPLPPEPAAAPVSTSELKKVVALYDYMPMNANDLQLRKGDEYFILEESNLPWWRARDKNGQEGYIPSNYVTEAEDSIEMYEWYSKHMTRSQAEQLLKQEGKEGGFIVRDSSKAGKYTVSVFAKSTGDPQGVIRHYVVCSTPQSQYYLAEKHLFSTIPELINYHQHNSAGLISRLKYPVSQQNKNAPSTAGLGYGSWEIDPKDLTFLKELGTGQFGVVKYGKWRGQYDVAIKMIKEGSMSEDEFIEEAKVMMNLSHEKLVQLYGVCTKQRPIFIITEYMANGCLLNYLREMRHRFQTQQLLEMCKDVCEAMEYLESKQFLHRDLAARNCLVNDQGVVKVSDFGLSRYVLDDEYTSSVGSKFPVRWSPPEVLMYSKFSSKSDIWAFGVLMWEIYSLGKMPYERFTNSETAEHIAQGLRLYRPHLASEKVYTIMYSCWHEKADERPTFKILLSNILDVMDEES

One series deals with Plasma. Particulars: human, 4 h.
Series [1] has as its target Tyrosine-protein kinase BTK (Homo sapiens, UniProt Q06187).

The compound `Cn1cc(-c2cccc(N3CCc4c(sc5c4CCCC5)C3=O)c2CO)cc(Nc2ccncn2)c1=O` yielded a PPB in the series with Plasma of 97%. As for `Cn1cc(-c2cc(F)cc(N3CCn4c(cc5c4CCCC5)C3=O)c2CO)cc(Nc2ccc(N3CCN(C4COC4)CC3)cn2)c1=O`, half-maximal inhibition in series [1] (IC50) required 4 nM. The compound `Cc1c(-c2cc(Nc3ccncn3)c(=O)n(C)c2)cccc1N1CCc2c(sc3c2CCCC3)C1=O` had a PPB in the series with Plasma of 99%.
